This is an account of results in patent EP4095134A1, “POLYCYCLIC COMPOUNDS FOR THE TREATMENT OF NEUROLOGICAL INDICATIONS” (UCL Business Ltd, priority 2021, dated 2022).

By UniProt entry, the sequences of proteins in these tests, tags left out.
UniProt P47900, whole entry: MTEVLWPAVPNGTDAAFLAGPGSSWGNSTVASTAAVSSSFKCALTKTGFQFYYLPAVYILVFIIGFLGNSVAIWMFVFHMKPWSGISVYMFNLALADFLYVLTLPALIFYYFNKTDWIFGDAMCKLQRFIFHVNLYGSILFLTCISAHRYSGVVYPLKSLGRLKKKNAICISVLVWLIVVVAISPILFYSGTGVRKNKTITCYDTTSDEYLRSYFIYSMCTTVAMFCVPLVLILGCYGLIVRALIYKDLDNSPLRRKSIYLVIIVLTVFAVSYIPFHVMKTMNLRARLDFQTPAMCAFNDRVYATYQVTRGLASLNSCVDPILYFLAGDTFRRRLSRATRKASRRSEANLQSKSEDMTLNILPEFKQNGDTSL

As a reminder, the IC50 is the concentration needed to halve the response being measured. Low readings indicate greater potency, high ones weaker potency.

The test addresses P2Y1 receptor (Homo sapiens, UniProt P47900). Description: P2Y1 IP1 accumulation HTRF assay, antagonism of agonist MRS2365 in stably transfected cells. As to conditions: single enantiomer; 5nM MRS2365; values rounded to nearest whole number. For orientation: TR-FRET usually uses a lanthanide donor and a delayed reading to cut background.

With `O=C(Nc1ccc(C2(C(F)(F)F)CCO2)cc1)Nc1cccnc1Oc1ccccc1C1(C(F)(F)F)CCO1` (single isomer, unassigned) [S103], the IC50 amounted to 59 nM.
The same measure for `O=C(Nc1ccc(C2(C(F)(F)F)CCO2)cc1)Nc1cccnc1Oc1ccccc1C1(C(F)(F)F)CCO1` (single isomer, unassigned) [S106]: 103 nM.
